This is an account of results in ChEMBL document CHEMBL1147770, “Design, synthesis and structure-activity relationships of new phosphinate inhibitors of MurD” (Bioorg Med Chem Lett, 2006).

The target of this assay is T1, UDP-N-acetylmuramoylalanine--D-glutamate ligase (Escherichia coli K-12) (UniProt P14900).
T1 sequence (whole entry): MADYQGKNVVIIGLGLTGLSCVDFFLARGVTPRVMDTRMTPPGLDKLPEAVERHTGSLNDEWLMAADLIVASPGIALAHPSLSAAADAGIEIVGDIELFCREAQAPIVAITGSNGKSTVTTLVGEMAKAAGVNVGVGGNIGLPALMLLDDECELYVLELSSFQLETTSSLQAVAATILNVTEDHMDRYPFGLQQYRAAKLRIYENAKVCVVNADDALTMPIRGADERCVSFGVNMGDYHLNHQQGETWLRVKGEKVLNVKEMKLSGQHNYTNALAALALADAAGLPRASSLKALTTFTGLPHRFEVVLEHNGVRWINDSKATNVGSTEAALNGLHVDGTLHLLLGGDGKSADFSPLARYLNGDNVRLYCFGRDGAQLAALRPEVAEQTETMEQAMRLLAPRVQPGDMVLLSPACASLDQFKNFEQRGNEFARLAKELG
The experiment in a line: Residual activity of MurD from Escherichia coli at 1 mM.

Consider `CC(NC(=O)/C=C/c1ccc2c(c1)OCO2)P(=O)(O)CC(CCC(=O)O)C(=O)O` (stereo unspecified), for which the Activity stood at 17%.
